In PMC10447463, “Data-mining unveils structure–property–activity correlation of viral infectivity enhancing self-assembling peptides” (Nature Communications, 2023):
Like-named read-outs stand apart in the source and are kept apart here.

What was measured:
[1] = type: physicochemical; set-up: key: 1= fibrils; 0= aggregates (micelle); 0.5 = aggregates and fibrils; -1 = nothing obersved
Description: For ATR FT–IR spectroscopy measurements, 200 µL of the respective 1 mg/mL PNF solution was lyophilized and the resulting powder used for measurement. All spectra were recorded on a Bruker Tensor 27 spectrometer with a diamond crystal as ATR element (PIKE MiracleTM, spectral resolution 2 cm^-1). Every sample was measured with 64 scans. Data were analyzed with OriginLab software and calculation of β–sheet content was conducted according to a previous report. TEM. For TEM measurements 5 µL of PNF fibrils (1 mg/mL) were placed on copper grids coated with carbon and formvar layer (300 mesh, Plano GmbH). […] 10 μL of the filtrate and non-filtered DMSO samples were submitted in a black UV Star® 384 microliter well–plates (Greiner bio–one) and 3 μL of the fluorescamine solution (10 mg/mL, DMSO) was added to measure the fluorescence enhancement. After 20 min of incubation at RT, fluorescence was recorded on an Infinite® M1000 PRO microplate reader (Tecan) at λem = 470 nm upon excitation at λex = 365 nm with 10 nm bandwidths and multiple reads per well (3×3). […] All values were calculated as n-fold fluorescence enhancement (DMSO only as a reference was set to 1). The conversion rate CR was defined according to the equation Eq. (3).3 CR=100−100×fluorescenceintensityfiltrate/fluorescenceintensityoriginal[%] […]

[2] = type: physicochemical
Description: (§1) 4 µL of 1 mg/mL peptide fibrils solution is added to a 20 µL, 50 µM ThT–solution in PBS. The mixture is incubated for 15 min at RT to allow binding of ThT dye with β–sheet rich structures. For reference PBS (4 µL) was added instead of peptide fibril solution. The samples were placed in black UV Star® 384 microliter well–plates (Greiner bio–one). Fluorescence spectra were recorded on an Infinite® M1000 PRO microplate reader (Tecan) at λem = 488 nm upon excitation at λex = 440 nm with 10 nm bandwidths and multiple reads per well (3×3). Measurements were repeated in triplicates and averaged with standard deviation. […] Zeta-Potential. For the determination of the surface charge of aggregated peptides zeta-potential measurements were conducted with a Zetasizer Nano ZS, Malvern Instruments. Unless stated otherwise the peptides were dissolved from DMSO (10 mg/mL) in PBS (pH 7.4) to concentration of 1 mg/mL and incubated for 1d at RT. Just before the measurement the 60 µL of the peptides were further diluted in 600 µL KCl (aq, 1 mM) in a 1 mL disposable folded capillary cells (DTS–1060, Zetasizer Nano series, Malvern). The zeta potential of the peptides was derived from the electrophoretic mobility based on the Smoluchowski formula. All measurements were averaged over two individually performed experiments and conducted in triplicates for each sample. Aggregate analysis. […] Furthermore, fluorescence microscopy was conducted by staining 1 µL preformed fibrils (1 mg/mL) with 9 µL ThT (50 µM). Brightfield microscopy was performed simultaneously to evaluate aggregation also for non ThT-active fibrils. The measurements were performed on a Leica DMi8 microscope with 10x air objective and equipped with a Leica MC170 HD camera with a filter setting λem = 527/30 nm upon excitation at λex = 480/40 nm) and processed with the Leica LASX software. To quantify size and number of microscopic aggregation of particles > 10 µm^2 at least 3 independently measured images were analyzed via the 3D object counter analysis tool of ImageJ, v 1.53f51. Sum–frequency generation. The SFG experiments were carried out with a femtosecond Ti: Sapphire amplified laser system (Spitfire Ace, Spectra–Physics, 800 nm, 40 fs, 1 kHz) with 5 W output power. We used 2 W to pump an optical parametric amplifier (TOPAS, light conversion) with a non–collinear difference frequency generation stage to generate broadband IR pulses. Another 1 W of the laser output passed through an etalon to generate narrowband visible pulses (10 cm^-1). The incident angles of the visible and IR beams were 36° and 41° with respect to the surface normal, respectively. The visible (13 µJ) and IR (5 µJ) pulses were overlapped spatially and temporally at the sample position. Subsequently, the generated SFG pulse was guided into a spectrograph (Acton SP 300i, Princeton Instruments), and detected with an EMCCD (Newton, Andor Technology). To avoid IR absorption of water vapor, we purged N2 for the measurement. All spectra were collected in the ssp (denoting s-, s- and p-polarized SFG, visible and IR, respectively) polarization combination. The spectra were normalized to the non–resonant signal taken from z–cut quartz after subtracting a background spectrum.
1. Remarks on experimental parameters and bioinformatic descriptors

[3] = Zeta-potential measurement; type: physicochemical
Description: as §1, with “spectrum. […]” for “spectrum.”

[4] = Conversion rate (CR) assay with fluorescamine; type: physicochemical
Description: For ATR FT–IR spectroscopy measurements, 200 µL of the respective 1 mg/mL PNF solution was lyophilized and the resulting powder used for measurement. All spectra were recorded on a Bruker Tensor 27 spectrometer with a diamond crystal as ATR element (PIKE MiracleTM, spectral resolution 2 cm^-1). Every sample was measured with 64 scans. Data were analyzed with OriginLab software and calculation of β–sheet content was conducted according to a previous report. TEM. For TEM measurements 5 µL of PNF fibrils (1 mg/mL) were placed on copper grids coated with carbon and formvar layer (300 mesh, Plano GmbH). […] 10 μL of the filtrate and non-filtered DMSO samples were submitted in a black UV Star® 384 microliter well–plates (Greiner bio–one) and 3 μL of the fluorescamine solution (10 mg/mL, DMSO) was added to measure the fluorescence enhancement. After 20 min of incubation at RT, fluorescence was recorded on an Infinite® M1000 PRO microplate reader (Tecan) at λem = 470 nm upon excitation at λex = 365 nm with 10 nm bandwidths and multiple reads per well (3×3). […] All values were calculated as n-fold fluorescence enhancement (DMSO only as a reference was set to 1). The conversion rate CR was defined according to the equation Eq. (3).3 CR=100−100×fluorescenceintensityfiltrate/fluorescenceintensityoriginal[%]

[5] = Turbidity, derived count rate of scattered light; type: physicochemical; details: for Zeta Count Rate / kcps: derived count rate of scattered light
Description: as §1, with “spectrum. […]” for “spectrum.”
ways to determine turbidity of samples, this can be via transmittance and via scattering. Transmittance […]
as it is an easy and fast method.10,11 However, transmittance contributes not only from µm-sized aggregates but also nm-sized aggregates such as distinct fibrils, which makes hard to distinguish between fibril formation and micrometer sized aggregation. Although dynamic light scattering is a frequently applied method for determination of particle size, it cannot be conducted in solutions with anisotropic aggregates in micrometer size range, since the Stokes-Einstein relation is only applicable for homogeneous […] spherical particles.12 Further models describing scattering intensity and […]

QCKAKAQANM [CK23]
TEM: 1= fibrils, 0= aggregates (micelle), 0.5 = aggregates and fibrils, -1 = nothing obersved, STD prep [1]: 0.5
Tht rel to blank (42.1851851851852) ([2]; ThT fluorescence relative to blank (42.1851851851852 a.u.)): 1.382
Tht rel to blank (42.1851851851852) ([2]; ThT fluorescence relative to blank, blank = 42.1851851851852): 1.382
Tht category (> 1.5 to blank = +) ([2]; category 1 / 0): 0 (ThT-inactive (N-Fold <2))
Tht category (> 1.5 to blank = +) ([2]; category 1/0): 0 (ThT-inactive (N-Fold <2))
Tht rel to blank (42.1851851851852) ([2]; relative to blank 42.1851851851852 a.u.): 1.382
Zeta Pot. / mV [3]: -8.357 mV
Zeta category ( +1 = if > 4 mV;-1 = if < -4 mV; 0 = -4mV to 4 mV) [3]: -1 (-1 = if < -4 mV)
Zeta category ( +1 = if > 4 mV;-1 = if < -4 mV; 0 = -4mV to 4 mV) ([3]; category from zeta potential): -1 (-1 = if < -4 mV)
Zeta Pot. / mV ([3]; mean, Std Zeta in next column): -8.357 mV
Zeta Pot. / mV ([3]; mean, Std in separate column): -8.357 mV
Zeta-pot. / mV ([3]; zeta potential of peptide, Fig S15 source data): -8.357 mV
Conversion Rate / % [4]: 55.94%
Conversion Rate / % ([4]; fluorescamine assay): 55.94%
Zeta Count Rate Category ([5]; category 1 / 0, no key given): 1
Zeta Count Rate Category ([5]; category 1/0, no key printed): 1
Zeta Count Rate Category ([5]; category 1 or 0 from count rate, key not given): 1
Zeta Count Rate / kcps [5]: 204.1 kcps
Zeta Count Rate / kcps ([5]; mean, std deviation in next column): 204.1 kcps
Zeta Count Rate / kcps ([5]; mean, std deviation in separate column): 204.1 kcps
